Data: publication PMC11477717, “Synthesis of Carborane–Thiazole Conjugates as Tyrosinase and 11β-Hydroxysteroid Dehydrogenase Inhibitors: Antiproliferative Activity and Molecular Docking Studies” (Molecules, 2024)

Amino acid sequences for entries named in this document (tags omitted). Residues count along the entry.
UniProt C7FF04, 1-392 limits assumed: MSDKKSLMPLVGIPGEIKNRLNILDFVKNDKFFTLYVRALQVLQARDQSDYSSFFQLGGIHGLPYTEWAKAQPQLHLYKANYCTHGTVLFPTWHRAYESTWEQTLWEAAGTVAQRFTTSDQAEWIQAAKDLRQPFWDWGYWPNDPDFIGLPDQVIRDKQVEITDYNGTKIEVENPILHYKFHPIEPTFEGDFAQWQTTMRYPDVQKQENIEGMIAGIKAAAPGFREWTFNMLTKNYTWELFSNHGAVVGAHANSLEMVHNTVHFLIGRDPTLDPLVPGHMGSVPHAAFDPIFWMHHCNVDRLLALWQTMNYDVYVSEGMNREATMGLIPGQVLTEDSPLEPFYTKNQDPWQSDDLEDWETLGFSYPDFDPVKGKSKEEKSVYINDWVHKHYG

Target: T1, mushroom tyrosinase (Agaricus bisporus, UniProt C7FF04)
T1 construct: purchased Sigma-Aldrich
Test: Mushroom tyrosinase inhibition assay (L-DOPA, dopachrome 475 nm)
Type: biochemical
Procedure: The mushroom tyrosinase (Sigma-Aldrich) inhibition was performed following previously reported methods. […] The inhibitor solutions were prepared in DMSO with an initial concentration of 1 mM. Different aliquots were added to the solution containing the buffer, L-DOPA, and EDTA, with the enzyme being added last. […] Ascorbic acid was used as a reference inhibitor with an initial concentration of 1 mM. The IC50 values were calculated from the equation generated via exponential fit of the experimental data.

[1] = L-DOPA 0.17 mM, pH 6.8, room temperature, read-out: IC50 ± SD mushroom tyrosinase

4-(2-(2-(1,2-Dicarba-closo-Dodecaboranylmethylene)Hydrazinyl)Thiazol-4-yl)Benzene-1-Sulfonyl Fluoride [4j]
IC50 [1]: 0.361 ± 0.119 mM

4-(2-(2-(1,2-Dicarba-closo-Dodecaboranylmethylene)Hydrazinyl)Thiazol-4-yl)Benzonitrile [4h]
IC50 [1]: 0.0113 ± 0.0059 mM | IC50 (rounded values in SAR summary, unit mM, read-out: IC50 tyrosinase inhibition): 0.011 mM

Where two headings read alike, the source gives them in different places.
